Earlier results in publication PMC10266261, “A High-Throughput Approach to Identify Specific Neurotoxicants / Developmental Toxicants in Human Neuronal Cell Function Assays” (ALTEX, 2018).

System: cardiomyocytes
Conditions: specific = cardio-physiologic parameters affected after 30 min at three-fold lower concentration than viability and no effect on viability after 24 h; ref Sirenko et al., 2017; cited from earlier work

Structure (SMILES): CC/C(=C(/CC)c1ccc(O)cc1)c1ccc(O)cc1 [Diethylstilbestrol]
- classification in the cardiotoxicity test method: generally cytotoxic
